Measured values published in US20190119407A1.

What was measured:
[1] = biological target: human TL1A (human) (UniProt O95150); test: cell-based or functional assay
[2] = biological target: cynomolgus TNF-α (cynomolgus monkey) (UniProt P79337); test: cell-based or functional assay
[3] = biological target: cynomolgus TNF-α (cynomolgus monkey) (UniProt P79337); test: SPR, mAb captured on anti-human Fc chip, TNF injected, 1:1 model
[4] = biological target: human TNF-α (human) (UniProt P01375); test: cell-based or functional assay

In the case of “Adalimumab IgG-9C8 scFv, iPS 369989 (bispecific antibody)”, the Activity TL1A (pM) [1] is reported as 140 pM.

Work on adalimumab (antibody) yielded an IC50 (pM) NFkB, Cyno TNF (20 pM) [2] of 180 pM, a Kd [3] of 0.087 nM and a koff [3] of 5.5e-05 s⁻¹. The kon [3] was 640000 M⁻¹ s⁻¹.

Work on iPS 377073 (bispecific antibody) yielded a hu TL1A (pM) [1] of 47.1 pM, a hu TL1A Fold Change [1] of 0.312 fold and a hu TNFα (pM) [4] of 36.8 pM. It also gave a hu TNFα Fold Change [4] of 0.254 fold.

“Adalimumab IgG-9C8 scFv + CC, iPS 369992 (bispecific antibody)” gave an Activity TL1A (pM) [1] of 151 pM.
